This passage reports inhibition results from ChEMBL document CHEMBL5537192, “Specific Inhibitors of Mitochondrial Deacylase Sirtuin 4 Endowed with Cellular Activity” (J Med Chem, 2024).

Chains of the proteins cited; added tags and fusions are not shown. Lines headed by an entry give the natural chain unless they say otherwise; changes in a name come on top.
UniProt Q9NXA8: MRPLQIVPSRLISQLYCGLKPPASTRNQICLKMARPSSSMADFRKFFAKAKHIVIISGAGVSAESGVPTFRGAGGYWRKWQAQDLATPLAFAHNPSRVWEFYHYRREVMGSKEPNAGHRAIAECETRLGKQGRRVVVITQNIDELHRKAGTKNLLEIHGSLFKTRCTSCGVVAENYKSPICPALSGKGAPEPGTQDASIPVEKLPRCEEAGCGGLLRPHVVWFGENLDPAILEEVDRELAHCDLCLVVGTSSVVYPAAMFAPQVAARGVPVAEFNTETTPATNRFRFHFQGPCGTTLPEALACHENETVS

Active and inactive are the calls of the source. No cut-off for these calls is given here.

The target in experiment [1] is T1, NAD-dependent protein lipoamidase sirtuin-4, mitochondrial (Mus musculus) (UniProt Q8R216).
T1 sequence (whole entry): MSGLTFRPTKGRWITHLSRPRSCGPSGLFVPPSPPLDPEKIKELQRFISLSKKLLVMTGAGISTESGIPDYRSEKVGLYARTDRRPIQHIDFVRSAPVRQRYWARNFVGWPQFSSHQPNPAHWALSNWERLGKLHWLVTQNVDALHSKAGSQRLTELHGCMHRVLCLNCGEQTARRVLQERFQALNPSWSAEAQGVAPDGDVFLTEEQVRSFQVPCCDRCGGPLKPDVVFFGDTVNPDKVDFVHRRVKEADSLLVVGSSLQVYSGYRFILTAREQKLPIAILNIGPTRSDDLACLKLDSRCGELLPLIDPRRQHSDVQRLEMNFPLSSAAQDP
Briefly: Inhibition of SIRT4 in mouse C2C12 cells assessed as increase in GDH activity incubated for 4 hrs by absorbance based assay. It is filed as cell-based. The note with it: dose 5-25 µM.

Experiment [2] deals with T1, NAD-dependent protein lipoamidase sirtuin-4, mitochondrial (Mus musculus). Briefly: Inhibition of SIRT4 in mouse C2C12 cell mitochondria assessed as increase in GDH activity incubated for 4 hrs by absorbance based assay. The note with it: dose 5-25 µM.
The target is the same in experiment [3]. Briefly: Inhibition of SIRT4 in mouse C2C12 cells assessed as rescue of PDH activity incubated for 8 days in presence of glutamax by GloMax multi-detection system. It is filed as cell-based. The note with it: time 8.0 day.
Experiment [4] shares this target. Briefly: Inhibition of SIRT4 in mouse C2C12 cell mitochondria assessed as rescue of PDH activity incubated for 8 days in presence of glutamax by GloMax multi-detection system. The note with it: time 8.0 day.
Experiment [5] has as its target NAD-dependent protein deacylase sirtuin-5, mitochondrial (Homo sapiens) (UniProt Q9NXA8). Briefly: Inhibition of N-terminal His-tagged recombinant human Sirt5 (34 to 302 residues) expressed in Escherichia coli CodonPlus(DE3) cells using succinylated FdL-substrate as substrate upto 50 uM incubated for 7 mins by fluorescence based assay.
Experiment [6] deals with T1, NAD-dependent protein lipoamidase sirtuin-4, mitochondrial (Mus musculus). Briefly: Inhibition of SIRT4 in mouse C2C12 cells assessed as increase in GDH activity at 5 to 25 uM incubated for 4 hrs by absorbance based assay. Format: cell-based. The note with it: dose 5-25 µM.
The target is the same in experiment [7]. The experiment can be described thus: Inhibition of SIRT4 in mouse C2C12 cell mitochondria assessed as increase in GDH activity at 5 to 25 uM incubated for 4 hrs by absorbance based assay. The conditions noted are these: dose 5-25 µM.
Experiment [8] shares this target. Briefly: Inhibition of SIRT4 in mouse C2C12 cells assessed as rescue of PDH activity at 25 uM incubated for 8 days in presence of glutamax by GloMax multi-detection system. It is filed as cell-based. The conditions noted are these: time 8.0 day.
The target is the same in experiment [9]. The experiment can be described thus: Inhibition of SIRT4 in mouse C2C12 cell mitochondria assessed as rescue of PDH activity at 25 uM incubated for 8 days in presence of glutamax by GloMax multi-detection system. The note with it: time 8.0 day.

Take `O=C(Nc1ncc(S(=O)(=O)c2ccc([N+](=O)[O-])cc2)s1)C(Sc1nc2cc(Cl)ccc2[nH]1)c1ccccc1` (stereo not drawn): the inhibition entry in [1], in experiment [2], in experiment [3] and in experiment [4] was “Dose-Dependent Effect” in each case.

For `O=C(CSc1nc2ccccc2c(=O)[nH]1)Nc1ncc(S(=O)(=O)c2ccc([N+](=O)[O-])cc2)s1`, the inhibition entry in [5] was “inactive”. In addition, the inhibition result in experiment [1], in experiment [2], in experiment [3] and in experiment [4] was “Dose-Dependent Effect” in each case.

In the case of `CCCc1cc(=O)[nH]c(SCC(=O)Nc2ccc(S(=O)(=O)c3ccc([N+](=O)[O-])cc3)cc2)n1`, the inhibition entry in experiment [6], in experiment [7], in experiment [8] and in experiment [9] was “inactive” in each case.
